Values after ≈ are worked out from the molar mass of the structure shown. Like-named read-outs stand apart in the source and are kept apart here.

Assay [1] has as its system B. thetaiotaomicron ATCC 29741. Nature of the assay: microbe, parasite or virus in culture. Format: cell-based. Particulars: Bacteroides thetaiotaomicron, ATCC29741, read-out: MIC, Agar.
Assay [2] concerns B. thetaiotaomicron ATCC 29741. Nature of the assay: microbe, parasite or virus in culture. Particulars: Bacteroides thetaiotaomicron, ATCC29741, read-out: MIC, Broth. In kind it is cell-based.

For the molecule `CCC[C@@H]1C[C@@H](C(=O)N[C@@H]([C@H]2O[C@H](SC)[C@H](O)[C@@H](O)[C@H]2O)[C@H](C)Cl)N(C)C1` [Clindamycin, clindamycin], the MIC in assay [1] and in assay [2] was 8 µg/mL (≈ 18.8 µM) in each case.
With `CC(=O)NC[C@H]1CN(c2ccc(N3CCOCC3)c(F)c2)C(=O)O1` [Linezolid, linezolid], the MIC in assay [1] and in assay [2] was 4 µg/mL (≈ 11.9 µM) throughout.
